Source: ChEMBL document CHEMBL2311317, “Organosilicon molecules with medicinal applications” (J Med Chem, 2013)

Species on record: Homo sapiens
Test: Selectivity ratio of COX1 (unknown origin) to COX2 (unknown origin)

Row | Selectivity ratio | Structure (SMILES)
1 | 1000 | COc1ccc2c(c1)c(CC(=O)NC[Si](C)(C)C)c(C)n2C(=O)c1ccc(Cl)cc1
2 | 1000 | COc1ccc2c(c1)c(CC(=O)NCCC[Si](C)(C)C)c(C)n2C(=O)c1ccc(Cl)cc1
3 | 1000 | COc1ccc2c(c1)c(CC(=O)NC[Si](C)(C)c1ccccc1)c(C)n2C(=O)c1ccc(Cl)cc1
